# Test system: PANC02 tumors
# Details: mouse, in vivo, iv
# Method: C57BL/6 female mice were obtained from Shanghai Lingchang Biotechnology Co., LTD, Shanghai, China. The animals were kept in the Animal Experiment Center of Shanghai Changhai Hospital of SPF level. Then, 1 × 10^6 PANC02 cells in 0.1 mL mixture of PBS and Matrigel at a 1:1 ratio was inoculated subcutaneous into the right trunk of the mice. When the tumor reached an average volume of 300–500 mm^3, in vivo experiments of tracer metabolism were performed.
# All imaging acquisition was performed on a clinical PET-CT scanner (Biograph64, Siemens Healthcare, Erlangen, Germany). Before imaging, the model mice were injected with 50 μL sodium pentobarbital (3%) into the abdominal cavity for anesthesia. […] For quantification of tracer uptake, 3D regions of interest (ROI) were drawn on the muscle, liver, and tumor.
substance,measurement,value
^18F-FDG [reference compound],tumor SUVmax,0.32 ± 0.03
same,tumor-to-liver (T/L) ratio,2.30 ± 0.49
same,tumor-to-muscle (T/M) ratio,8.22 ± 0.19

# Reference: paper PMC9865957, “^68Ga-HBED-CC-WL-12 PET in Diagnosing and Differentiating Pancreatic Cancers in Murine Models” (Pharmaceuticals, 2023)
